{"source": "patent US5541182A", "about": "“Benzodiazepine aryl urea derivatives” (Yamanouchi Pharmaceutical Co., Ltd., priority 1990, dated 1996)", "key": {"benzodiazepine receptor": {"test_system": "benzodiazepine receptor", "conditions": "read-out: IC50, binding to the benzodiazepine receptor; cited from Eur. J. Pharmacol., 162, 273-280, 1989; cited from earlier work"}, "[1]": {"test_system": "gastric-acid secretion caused by the stimulus of pentagastrin", "experiment": "Depression of gastric-acid secretion caused by the stimulus of pentagastrin", "conditions": "SD rats, urethane anesthetized, i.v. test drug, pentagastrin 15 μg/kg/hr i.v."}}, "note": "pIC50: −log10 of the molar value.", "data": [{"smiles": "Cc1cccc(NC(=O)N[C@@H]2N=C(c3ccccc3)c3ccccc3N(C)C2=O)c1", "values": [{"measurement": "pIC50", "setting": "benzodiazepine receptor", "result": 5.92}, {"measurement": "Depression of gastric-acid secretion; ED50", "setting": "[1]", "result": 4.2, "unit": "µmol/kg"}]}]}
